Measured values published in US20220249615A1.

Biological target: GLP-1R
Assay: cell-based or functional assay

## CA Exendin (lysine)-PEG-(N-terminus) Fc (from UniProt P26349)
  % vs. Experimental group, CHO/GLP-1R bioassay: 100%
  EC50, in vitro activity - CHO/GLP-1R bioassay: 0.0953 mg/L
  in vitro potency relative to the isomer linked at another position of the Fc: 6 times

## CA Exendin (lysine)-PEG-(lysine) Fc (from UniProt P26349)
  % vs. Experimental group, CHO/GLP-1R bioassay: 16.1%
  EC50, in vitro activity - CHO/GLP-1R bioassay: 0.591 mg/L
